Measurements published in EP4592322A1 (Chuang, Woei-jer, dated 2025).

Target: integrin alpha(IIb)beta(3) (UniProt P08514 32-1039; P05106 27-788)
Assay: cell-based or functional assay

Row | Binder | IC50: platelet aggregation | Ratio (RR/corresponding protein) of IC50 for platelet aggregation
1 | TNK-(PA)7-RR (other) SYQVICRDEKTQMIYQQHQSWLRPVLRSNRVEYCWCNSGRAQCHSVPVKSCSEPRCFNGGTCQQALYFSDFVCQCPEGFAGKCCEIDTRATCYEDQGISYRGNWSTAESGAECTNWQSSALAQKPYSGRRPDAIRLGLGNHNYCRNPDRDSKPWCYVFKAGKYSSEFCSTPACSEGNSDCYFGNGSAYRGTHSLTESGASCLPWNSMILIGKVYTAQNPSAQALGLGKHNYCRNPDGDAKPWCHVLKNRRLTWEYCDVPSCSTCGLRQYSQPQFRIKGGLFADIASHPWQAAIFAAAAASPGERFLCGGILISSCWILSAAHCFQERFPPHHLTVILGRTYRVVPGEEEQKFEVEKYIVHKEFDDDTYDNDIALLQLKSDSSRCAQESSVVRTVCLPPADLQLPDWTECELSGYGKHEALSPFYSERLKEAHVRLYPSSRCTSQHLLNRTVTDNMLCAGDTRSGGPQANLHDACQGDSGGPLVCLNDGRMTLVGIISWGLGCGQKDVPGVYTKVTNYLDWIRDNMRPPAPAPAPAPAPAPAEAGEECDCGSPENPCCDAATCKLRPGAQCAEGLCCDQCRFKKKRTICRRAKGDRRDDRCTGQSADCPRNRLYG | 347 nM | 0.151 ratio (RR/corresponding protein)
2 | TNK-(PA)3-RR (other) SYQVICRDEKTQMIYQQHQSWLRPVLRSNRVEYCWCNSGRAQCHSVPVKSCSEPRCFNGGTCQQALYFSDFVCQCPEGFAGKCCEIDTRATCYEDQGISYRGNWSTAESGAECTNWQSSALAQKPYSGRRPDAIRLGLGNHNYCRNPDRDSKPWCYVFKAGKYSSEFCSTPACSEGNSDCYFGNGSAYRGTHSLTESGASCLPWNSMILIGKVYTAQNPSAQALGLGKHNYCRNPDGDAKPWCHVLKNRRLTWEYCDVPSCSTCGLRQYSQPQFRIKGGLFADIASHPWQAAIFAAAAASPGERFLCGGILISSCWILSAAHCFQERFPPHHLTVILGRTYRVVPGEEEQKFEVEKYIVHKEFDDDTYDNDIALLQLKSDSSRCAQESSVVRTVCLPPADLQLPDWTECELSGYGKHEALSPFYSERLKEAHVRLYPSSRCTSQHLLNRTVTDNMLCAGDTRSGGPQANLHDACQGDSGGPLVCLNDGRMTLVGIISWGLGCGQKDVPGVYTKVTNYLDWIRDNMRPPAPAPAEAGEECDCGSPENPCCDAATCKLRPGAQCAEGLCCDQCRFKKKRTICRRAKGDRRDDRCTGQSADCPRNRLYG | 506 nM | 0.104 ratio (RR/corresponding protein)
3 | RR-(PA)5-TNK (other) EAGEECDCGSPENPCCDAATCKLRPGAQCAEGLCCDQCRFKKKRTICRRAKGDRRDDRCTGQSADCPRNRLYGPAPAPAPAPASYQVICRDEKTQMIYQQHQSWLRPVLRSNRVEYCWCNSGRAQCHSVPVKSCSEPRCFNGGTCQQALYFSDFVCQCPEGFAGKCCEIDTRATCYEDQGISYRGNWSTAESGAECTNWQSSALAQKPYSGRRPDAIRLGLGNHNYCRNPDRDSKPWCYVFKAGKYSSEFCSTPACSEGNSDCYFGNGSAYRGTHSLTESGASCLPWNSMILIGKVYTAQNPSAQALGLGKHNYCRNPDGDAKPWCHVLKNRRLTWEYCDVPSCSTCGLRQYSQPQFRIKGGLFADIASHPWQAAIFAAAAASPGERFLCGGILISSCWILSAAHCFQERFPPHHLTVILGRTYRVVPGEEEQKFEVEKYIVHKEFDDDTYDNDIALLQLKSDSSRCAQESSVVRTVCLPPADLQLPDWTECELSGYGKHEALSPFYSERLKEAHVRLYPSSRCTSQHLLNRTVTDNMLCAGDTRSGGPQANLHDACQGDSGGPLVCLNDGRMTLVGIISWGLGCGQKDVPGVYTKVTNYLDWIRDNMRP | 1370 nM | 0.0383 ratio (RR/corresponding protein)
4 | TNK-(PA)5-RR (other) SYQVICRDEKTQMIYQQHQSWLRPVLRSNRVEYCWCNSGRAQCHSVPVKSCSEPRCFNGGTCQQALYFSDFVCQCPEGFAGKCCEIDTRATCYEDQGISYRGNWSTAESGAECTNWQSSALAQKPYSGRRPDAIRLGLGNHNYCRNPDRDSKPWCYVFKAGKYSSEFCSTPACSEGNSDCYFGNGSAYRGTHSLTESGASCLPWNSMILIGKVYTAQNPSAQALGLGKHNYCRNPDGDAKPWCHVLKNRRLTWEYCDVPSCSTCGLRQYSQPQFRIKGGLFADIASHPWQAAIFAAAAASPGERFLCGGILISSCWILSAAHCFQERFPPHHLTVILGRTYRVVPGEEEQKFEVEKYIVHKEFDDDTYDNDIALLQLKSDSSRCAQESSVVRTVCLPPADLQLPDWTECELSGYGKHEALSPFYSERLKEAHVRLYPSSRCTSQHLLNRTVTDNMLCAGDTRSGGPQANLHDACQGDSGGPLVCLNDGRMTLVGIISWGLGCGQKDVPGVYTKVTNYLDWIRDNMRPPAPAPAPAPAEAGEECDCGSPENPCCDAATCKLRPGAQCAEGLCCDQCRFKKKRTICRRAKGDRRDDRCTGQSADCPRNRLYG | 380 nM | 0.138 ratio (RR/corresponding protein)
5 | TNK-G9-RR (other) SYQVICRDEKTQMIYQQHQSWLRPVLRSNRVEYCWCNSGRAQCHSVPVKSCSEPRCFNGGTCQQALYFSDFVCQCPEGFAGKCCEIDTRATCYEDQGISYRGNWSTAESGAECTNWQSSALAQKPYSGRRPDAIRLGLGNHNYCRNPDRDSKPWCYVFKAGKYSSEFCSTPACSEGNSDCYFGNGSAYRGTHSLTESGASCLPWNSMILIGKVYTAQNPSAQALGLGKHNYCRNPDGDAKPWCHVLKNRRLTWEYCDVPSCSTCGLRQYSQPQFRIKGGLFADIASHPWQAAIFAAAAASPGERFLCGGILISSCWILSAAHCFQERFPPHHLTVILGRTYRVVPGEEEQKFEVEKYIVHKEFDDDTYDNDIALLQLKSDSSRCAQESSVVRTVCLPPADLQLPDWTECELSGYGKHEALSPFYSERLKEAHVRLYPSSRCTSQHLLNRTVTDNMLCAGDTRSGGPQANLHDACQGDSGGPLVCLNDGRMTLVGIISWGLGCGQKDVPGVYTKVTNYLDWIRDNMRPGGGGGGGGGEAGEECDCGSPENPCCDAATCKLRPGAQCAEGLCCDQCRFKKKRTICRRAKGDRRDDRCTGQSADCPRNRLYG | 567 nM | –
6 | TNK-EA3K(G4S)2-RR (other) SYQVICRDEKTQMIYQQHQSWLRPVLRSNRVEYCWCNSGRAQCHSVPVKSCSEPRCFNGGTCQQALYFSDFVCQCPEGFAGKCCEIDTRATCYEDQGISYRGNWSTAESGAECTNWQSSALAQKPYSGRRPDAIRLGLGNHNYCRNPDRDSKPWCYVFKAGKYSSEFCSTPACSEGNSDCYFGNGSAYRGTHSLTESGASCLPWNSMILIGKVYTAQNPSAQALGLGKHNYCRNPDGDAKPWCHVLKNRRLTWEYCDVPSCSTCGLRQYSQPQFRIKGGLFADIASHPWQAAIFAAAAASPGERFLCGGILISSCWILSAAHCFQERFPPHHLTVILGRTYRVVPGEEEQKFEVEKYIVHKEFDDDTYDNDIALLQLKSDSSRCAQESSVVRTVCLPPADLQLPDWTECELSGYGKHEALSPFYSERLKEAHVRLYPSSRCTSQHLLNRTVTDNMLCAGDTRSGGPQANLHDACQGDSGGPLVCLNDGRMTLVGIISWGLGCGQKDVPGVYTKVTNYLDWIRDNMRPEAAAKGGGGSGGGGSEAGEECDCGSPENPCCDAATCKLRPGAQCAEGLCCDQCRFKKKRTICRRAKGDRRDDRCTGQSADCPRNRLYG | 276 nM | 0.191 ratio (RR/corresponding protein)
7 | TNK-(EA3K)3-RR (other) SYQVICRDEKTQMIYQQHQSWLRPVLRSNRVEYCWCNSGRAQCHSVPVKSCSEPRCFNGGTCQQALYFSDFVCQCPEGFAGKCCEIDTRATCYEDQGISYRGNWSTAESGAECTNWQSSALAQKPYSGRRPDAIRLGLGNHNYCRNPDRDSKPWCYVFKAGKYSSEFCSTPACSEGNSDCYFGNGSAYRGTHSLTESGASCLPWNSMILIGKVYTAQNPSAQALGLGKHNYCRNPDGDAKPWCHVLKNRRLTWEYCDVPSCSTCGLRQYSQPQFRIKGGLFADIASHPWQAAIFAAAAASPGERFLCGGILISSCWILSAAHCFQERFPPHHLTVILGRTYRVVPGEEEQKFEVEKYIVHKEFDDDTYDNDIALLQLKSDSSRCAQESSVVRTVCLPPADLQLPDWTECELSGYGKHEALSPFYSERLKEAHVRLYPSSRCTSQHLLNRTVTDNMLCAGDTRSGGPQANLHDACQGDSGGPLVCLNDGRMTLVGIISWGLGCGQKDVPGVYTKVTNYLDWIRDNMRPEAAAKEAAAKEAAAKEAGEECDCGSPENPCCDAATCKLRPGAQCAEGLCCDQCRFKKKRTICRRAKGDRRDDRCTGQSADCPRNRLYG | 458 nM | 0.115 ratio (RR/corresponding protein)
8 | TNK-(G4S)3-RR (other) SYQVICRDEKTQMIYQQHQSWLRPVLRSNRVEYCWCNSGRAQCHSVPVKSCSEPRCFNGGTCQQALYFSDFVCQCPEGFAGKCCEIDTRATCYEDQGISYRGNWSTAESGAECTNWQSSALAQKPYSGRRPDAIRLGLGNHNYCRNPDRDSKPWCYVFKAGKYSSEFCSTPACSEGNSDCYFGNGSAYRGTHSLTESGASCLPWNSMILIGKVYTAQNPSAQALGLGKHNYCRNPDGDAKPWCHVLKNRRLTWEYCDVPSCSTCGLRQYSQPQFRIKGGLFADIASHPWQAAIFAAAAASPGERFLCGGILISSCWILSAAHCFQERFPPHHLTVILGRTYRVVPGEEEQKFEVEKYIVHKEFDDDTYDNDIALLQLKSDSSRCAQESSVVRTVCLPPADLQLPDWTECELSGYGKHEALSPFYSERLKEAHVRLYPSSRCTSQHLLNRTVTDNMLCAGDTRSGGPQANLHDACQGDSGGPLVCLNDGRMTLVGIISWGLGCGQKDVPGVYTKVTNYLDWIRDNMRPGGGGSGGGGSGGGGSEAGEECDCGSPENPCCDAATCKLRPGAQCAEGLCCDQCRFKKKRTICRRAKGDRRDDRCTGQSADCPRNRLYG | 249 nM | 0.21 ratio (RR/corresponding protein)
